The test system of this assay is B16-F10. Description: Cytotoxicity against mouse B16F10 cells measured after 2 days by MTS assay. The assay is classed as functional, cell-based. For orientation: Tetrazolium assays rely on reduction of a dye to a coloured formazan, in cell work by metabolically active cells.

Two molecules from ChEMBL document CHEMBL3872262, “Synthesis of novel C4-benzazole naphthalimide derivatives with potent anti-tumor properties against murine melanoma” (Bioorg Med Chem, 2017) can be followed below.

Structures are written as SMILES.

Turning to `CN(C)CCN1C(=O)c2cccc3c(-c4nc5ccccc5o4)ccc(c23)C1=O`, the Activity entry was “Dose-dependent effect”.

`CN(C)CCN1C(=O)c2cccc3c(-c4nc5ccccc5s4)ccc(c23)C1=O`: the Activity result is “Dose-dependent effect”.
